# From US20230190943A1, “ALGINIC ACID DERIVATIVE BONDED TO NONSTEROIDAL ANTI-INFLAMMATORY COMPOUND” (MOCHIDA PHARMACEUTICAL CO., LTD., priority 2018, published 2023)
# Columns and labels:
# [1] = Release test of free diclofenac from conjugates in 20 mM sodium phosphate buffer, 37°C (Example 11); type: physicochemical; details: for Release Rate in Release Test at pH 5.3: pH 5.3, 37°C; for Release Rate in Release Test at pH 7.0: pH 7.0, 37°C
# Method: (§1) (set temperature of air conditioner). After confirming that no gel was formed, this solution was dispensed. Immediately after the dissolution, the amount of free diclofenac present in each solution was measured by LC-MS/MS as an initial state (day 0 of storage). Also, the other dispensed solutions were incubated at 37° C. for 1, 3, and 7 days, and then the amount of free diclofenac was measured. […] The MS conditions are as follows. • Ionization mode: ESI-negative • Ion source temperature: 300 degrees • Capillary voltage: -4000 V
# [2] = Release test of free diclofenac, felbinac, ketoprofen or naproxen in sodium phosphate buffer (Example 23); type: physicochemical
# Method: as §1
# [3] = pH 5.3, day 1, free drug (diclofenac, felbinac, ketoprofen or naproxen)
# [4] = pH 5.3, day 3, free drug (diclofenac, felbinac, ketoprofen or naproxen)
# [5] = pH 5.3, day 7, free drug (diclofenac, felbinac, ketoprofen or naproxen)
# [6] = pH 7.0, day 1, free drug (diclofenac, felbinac, ketoprofen or naproxen)
# [7] = pH 7.0, day 3, free drug (diclofenac, felbinac, ketoprofen or naproxen)
# [8] = pH 7.0, day 7, free drug (diclofenac, felbinac, ketoprofen or naproxen)
Substance,"Release Rate in Release Test at pH 5.3 ([1]; Day 1, 0.1% w/w conjugate)","Release Rate in Release Test at pH 5.3 ([1]; Day 3, 0.1% w/w conjugate)","Release Rate in Release Test at pH 5.3 ([1]; Day 7, 0.1% w/w conjugate)","Release Rate in Release Test at pH 7.0 ([1]; Day 1, 0.1% w/w conjugate)","Release Rate in Release Test at pH 7.0 ([1]; Day 3, 0.1% w/w conjugate)","Release Rate in Release Test at pH 7.0 ([1]; Day 7, 0.1% w/w conjugate)","Release Rate in Release Test at pH 5.3 [2, 3]","Release Rate in Release Test at pH 5.3 [2, 4]","Release Rate in Release Test at pH 5.3 [2, 5]","Release Rate in Release Test at pH 7.0 [2, 6]","Release Rate in Release Test at pH 7.0 [2, 7]","Release Rate in Release Test at pH 7.0 [2, 8]"
Diclofenac-(1-Amino-2-Propanol)-Alginic Acid Derivative [Compound 9],0.0%,0.0%,0.1%,0.0%,0.7%,1.9%,,,,,,
Ketoprofen-(2-Amino-N-(2-Hydroxyethyl)Acetamide)-Alginic Acid Derivative [Compound 88],,,,,,,0.1%,0.2%,0.3%,0.4%,1.4%,3.4%
Naproxen-(2-Amino-N-(2-Hydroxyethyl)Acetamide)-Alginic Acid Derivative [Compound 92],,,,,,,0.2%,0.1%,0.2%,0.2%,0.8%,1.7%
